This is an account of results in ChEMBL document CHEMBL1135488, “Prediction of volume of distribution values in humans for neutral and basic drugs using physicochemical measurements and plasma protein binding data” (J Med Chem, 2002).

This data set in a line: Ionisation constant (pKa). The format is physicochemical.

Compound `Cc1nc2n(c(=O)c1CCN1CCC(c3noc4cc(F)ccc34)CC1)CCCC2` [RISPERIDONE] registered a pKa of 7.91.

Broadly, the pKa is the pH at which an ionisable group is half protonated. A low value points to a group that gives up its proton readily.
